Test system: Chlorine-Induced Acute Lung Injury (ALI) Sheep Model
Assay: Chlorine-induced acute lung injury (ALI) sheep model, Protocol 2: PaO2/FiO2

## COc1ccc(C2CNC(=O)C2)cc1OC1CCCC1 (stereo not drawn)
Rolipram 3 mg, 30-min infusion, 1 h post-chlorine gas exposure (210 ppm, 30 min), 1 animal, interim
  PaO2/FiO2: 522.9 mm Hg
Rolipram 3 mg, 3 h post-chlorine gas exposure, 1 animal, interim
  PaO2/FiO2: 315.3 mm Hg
Rolipram 3 mg, 6 h post-chlorine gas exposure, 1 animal, interim
  PaO2/FiO2: 391.6 mm Hg
Rolipram 3 mg, 12 h post-chlorine gas exposure, 1 animal, interim
  PaO2/FiO2: 322.7 mm Hg
Rolipram 3 mg, 18 h post-chlorine gas exposure, 1 animal, interim
  PaO2/FiO2: 235.8 mm Hg
Rolipram 3 mg, 24 h post-chlorine gas exposure, 1 animal, interim
  PaO2/FiO2: 144.5 mm Hg
Rolipram 3 mg, 30 h post-chlorine gas exposure, 1 animal, interim
  PaO2/FiO2: 84.6 mm Hg
Rolipram 3 mg, 36 h post-chlorine gas exposure, 1 animal, interim
  PaO2/FiO2: 97.9 mm Hg
Rolipram 3 mg, 42 h post-chlorine gas exposure, 1 animal, interim
  PaO2/FiO2: 102.7 mm Hg
Rolipram 3 mg, 48 h post-chlorine gas exposure, 1 animal, interim
  PaO2/FiO2: 59 mm Hg
Rolipram 3 mg, after the 24-hour time-point post-chlorine gas exposure (less than 200 or less than 100)
  PaO2/FiO2: less than 200 mm Hg
Rolipram 3 mg, at the 18 hour time-point (mild ARDS)
  PaO2/FiO2: less than 300 mm Hg

## CC(C)C(=O)c1c(C(C)C)nn2ccccc12
High MN-166 20 mg, 30-min infusion, time-point 0 h, 1 animal, interim
  PaO2/FiO2: 650 mm Hg
High MN-166 20 mg, 1 h post-chlorine gas exposure, 1 animal, interim
  PaO2/FiO2: 415.1 mm Hg
High MN-166 20 mg, 3 h post-chlorine gas exposure, 1 animal, interim
  PaO2/FiO2: 331.7 mm Hg
High MN-166 20 mg, 6 h post-chlorine gas exposure, 1 animal, interim
  PaO2/FiO2: 329 mm Hg
High MN-166 20 mg, 12 h post-chlorine gas exposure, 1 animal, interim
  PaO2/FiO2: 461.3 mm Hg
High MN-166 20 mg, 18 h post-chlorine gas exposure, 1 animal, interim
  PaO2/FiO2: 313.2 mm Hg
High MN-166 20 mg, 24 h post-chlorine gas exposure, 1 animal, interim
  PaO2/FiO2: 392.2 mm Hg
High MN-166 20 mg, 30 h post-chlorine gas exposure, 1 animal, interim
  PaO2/FiO2: 434.2 mm Hg
High MN-166 20 mg, 36 h post-chlorine gas exposure, 1 animal, interim
  PaO2/FiO2: 409.6 mm Hg
High MN-166 20 mg, 42 h post-chlorine gas exposure, 1 animal, interim
  PaO2/FiO2: 466.7 mm Hg
High MN-166 20 mg, 48 h post-chlorine gas exposure, 1 animal, interim
  PaO2/FiO2: 445.7 mm Hg
Low MN-166 10 mg, 30-min infusion, time-point 0 h, 1 animal, interim
  PaO2/FiO2: 507.1 mm Hg
Low MN-166 10 mg, 1 h post-chlorine gas exposure, 1 animal, interim
  PaO2/FiO2: 295.8 mm Hg
Low MN-166 10 mg, 3 h post-chlorine gas exposure, 1 animal, interim
  PaO2/FiO2: 292.6 mm Hg
Low MN-166 10 mg, 6 h post-chlorine gas exposure, 1 animal, interim
  PaO2/FiO2: 368.5 mm Hg
Low MN-166 10 mg, 12 h post-chlorine gas exposure, 1 animal, interim
  PaO2/FiO2: 329.3 mm Hg
Low MN-166 10 mg, 18 h post-chlorine gas exposure, 1 animal, interim
  PaO2/FiO2: 340 mm Hg
Low MN-166 10 mg, 24 h post-chlorine gas exposure, 1 animal, interim
  PaO2/FiO2: 382.3 mm Hg
Low MN-166 10 mg, 30 h post-chlorine gas exposure, 1 animal, interim
  PaO2/FiO2: 381.2 mm Hg
Low MN-166 10 mg, 36 h post-chlorine gas exposure, 1 animal, interim
  PaO2/FiO2: 365.8 mm Hg
Low MN-166 10 mg, 42 h post-chlorine gas exposure, 1 animal, interim
  PaO2/FiO2: 335.6 mm Hg
Low MN-166 10 mg, 48 h post-chlorine gas exposure, 1 animal, interim
  PaO2/FiO2: 339.3 mm Hg
High dose MN-166 20 mg, all time-points, never decreased below
  PaO2/FiO2: ≥ 300 mm Hg
High dose MN-166 20 mg, by the 30-hour time-point
  PaO2/FiO2: above 400 mm Hg
